Assay outcomes (PubChem)
iPSC survival up = increases survival of single human iPS cells; AID 602274; survival enhancement, % at 20 µM; 360,000 compounds, 0.044% hits; hiPSC single-cell survival, ATPlite luminescence; 100% = ROCK inhibitor wells, 0% = DMSO; in the data active = survival enhancement above about 18%;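 note: cells exposed to compounds for 16 hours before the ATP read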
FN deposit inh = fibronectin deposition inhibition | AID 743247 | AH1F fibroblasts, Alexa488-fibronectin deposition fluorescence, overnight | 350,000 compounds, 0.086% hits | inhibition, % at 12.6 µM;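 active = mean inhibition across replicates of 30% or more, regardless of how many single replicates reach that level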;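 note: positive control wells lacked labelled fibronectin entirely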
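Test system: AH1F fibroblast monolayer depositing Alexa488-labelled fibronectin into matrix. Input: 10000 cells per well. Technique: fluorescence, ex 485 nm, em 525 nm. Buffer or medium: DMEM plus 2% serum, read in PBS. Timing: 1 h cell adhesion before compound, then overnight fibronectin incubation. Compound: single dose, pinned. Read-out basis: inhibition from reduced deposited-fibronectin fluorescence.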
PGC1a acetyl inh = modulators of PGC1a acetylation; AID 651687; inhibition, % at 15.6 µM; 350,000 compounds, 0.17% hits; U2OS PGC1a acetylation, AlphaScreen anti-acetyl-lysine; with virally co-expressed GCN5 acetyltransferase;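 active = every replicate shows inhibition of at least 40%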;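 note: 0% = neutral control wells and 100% = positive control wells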
Yeast UUG start = modulators of start codon recognition fidelity in yeast; AID 602363; hit rate 0.13% among 350,000; activity score, % at 18.7 µM; S. cerevisiae UUG-firefly luciferase reporter, luminescence/redox ratio;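 active = replicate mean at a twofold rise or more, about +100% in these data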;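 note: firefly luciferase made from a UUG start codon reports start codon fidelity; reporter light over untreated wells divided by growth signal over untreated wells; some hits fall short of that in this replicate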
Statin myotox sup = suppression of simvastatin myotoxicity; C2C12 myotubes + simvastatin, ATP luminescence, 48 h; scaled: DMSO 0, geranylgeraniol control 100; rescue of ATP level, % at 7.49 µM; 330,000 compounds, 0.78% hits;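 active = mean ATP rescue above about 67%, or every replicate alone reaching that limit, limit read from the data, passing the limit was not always enough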;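 note: myotubes were challenged with 10 µM simvastatin during compound exposure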
The depositor's hits bear a star; x = no result; ! = a repeat was not active. An excerpt weighted towards active compounds, which were near 0.91% of everything screened.

The line under a structure holds: iPSC survival up	FN deposit inh	PGC1a acetyl inh	Yeast UUG start	Statin myotox sup
- Cc1noc(C)c1S(=O)(=O)Nc1ccc2c(c1)C(=O)N([C@H](C)CO)C[C@@H](C)[C@H](CN(C)CC1CCCCC1)OCCCC[C@H](C)O2
 : x	x	x	14.5	-119.7
- Cc1noc(C)c1S(=O)(=O)Nc1ccc2c(c1)C(=O)N([C@@H](C)CO)C[C@@H](C)[C@@H](CN(C)CC1CCCCC1)OCCCC[C@@H](C)O2
 : -4.3	4.4	84.6*	8.7	-20.6
- Cc1noc(C)c1S(=O)(=O)Nc1ccc2c(c1)C(=O)N([C@H](C)CO)C[C@H](C)[C@H](CN(C)Cc1ccc(Cl)c(Cl)c1)OCCCC[C@@H](C)O2
 : x	x	-1.2	10.6	35.0
- CO[C@@H]1CN(C)C(=O)c2ccc(NC(C)=O)cc2OC[C@@H](C)N(C(=O)c2cnccn2)C[C@@H]1C
 : x	-0.2	6.5	x	-4.6
- CC(=O)N/C(=C\c1cccc([N+](=O)[O-])c1)C(=O)NC(C)C
 : -0.6	0.1	-2.7	-17.4	13.7
- CC(C)(C)C(=O)/C(=C\c1cccc([N+](=O)[O-])c1)n1cncn1
 : 12.4	x	96.0*	-27.1	22.9
- Cc1cccc(N=c2oc3cc(O)ccc3cc2C(N)=O)c1
 : -3.5	11.2	6.1	-6.2	118.3*
- COc1ccccc1NC(=O)N[C@@H]1CC[C@@H](CCNC(=O)c2ccc3c(c2)OCO3)O[C@H]1CO
 : x	-3.2	-3.7	8.8	-6.7
- Cc1ccsc1/C=N/N1CCOCC1
 : -3.2	3.8	x	x	x
- Cc1ccc(N2CCN(/N=C/c3sccc3C)CC2)cc1
 : -3.0	-2.4	1.7	-25.3	140.5*
- Cc1ccc2c(c1)N(CC(=O)Nc1nccs1)C(=O)CO2
 : -0.3	1.1	x	x	4.0
- Cc1ccc(NC(=O)CN2C(=O)COc3ccc(C)cc32)nc1
 : 3.0	-5.0	-12.6	-20.7	81.1*
- Cc1ccc2c(c1)N(CC(=O)NCCc1c[nH]c3ccccc13)C(=O)CO2
 : -3.0	x	x	-4.1	79.7*
- Cc1ccc2[nH]cc(CCNC(=O)CN3C(=O)c4ccccc4C3=O)c2c1
 : 1.5	-6.7	0.4	x	2.7
- CCCN1[C@@H]2c3ccc(C4=CCCC4)c(=O)n3C[C@H]1[C@H](CO)[C@H]2C(=O)N(C)C
 : x	x	5.1	x	-13.8
- O=S(=O)(c1cccs1)N1CCCCN2[C@H](C1)[C@@H](c1ccc(Br)cc1)[C@@H]2CO
 : x	x	-7.3	4.8	-12.7
- O=C1NC(=O)C2(CCc3ccccc32)N1 (stereo unspecified)
 : 1.8	x	1.4	-5.9	65.2*
- COc1ccccc1N(CC(=O)N1CCCCCC1)S(=O)(=O)c1ccc(C)cc1
 : -0.6	3.0	3.2	4.4	91.3*
- COc1ccccc1N(CC(=O)N1CCCC1)S(=O)(=O)c1ccc(C)cc1
 : -0.4	-2.1	x	9.7	-6.2
- C[C@@H]1CN([C@H](C)CO)C(=O)c2cc(NC(=O)CCC(F)(F)F)ccc2O[C@@H](C)CCCCO[C@H]1CN(C)C(=O)Nc1ccc2c(c1)OCO2
 : x	x	0.3	5.2	x
- c1csc(CNc2ncnc3ccc(-c4ccoc4)cc23)c1
 : -0.4	-1.7	50.4*	-5.7	1.7
- COc1ccc(S(=O)(=O)Nc2ccc3c(c2)C(=O)N([C@@H](C)CO)C[C@@H](C)[C@H](CN(C)C(=O)Cc2ccccc2)OCCCC[C@H](C)O3)cc1
 : x	x	3.8	-5.2	x
- COC(=O)c1ccc(N2C(=O)CC(N(C)Cc3ccccc3)C2=O)cc1 (stereo unspecified)
 : 6.0	x	10.6	-11.5	86.9*
- COc1ccc(/C=C/C(=O)NC(=S)NNC(=O)Cc2cccs2)cc1
 : -2.8	x	-5.6	x	x
- O=C(/C=C/c1ccccc1)NC(=S)NNC(=O)Cc1cccs1
 : -0.1	8.4	-16.7	-21.1	104.1*
- C[C@H](CO)N1C[C@H](C)[C@@H](CN(C)Cc2ccc(Cl)c(Cl)c2)OCCCC[C@H](C)Oc2ccc(N(C)C)cc2C1=O
 : x	x	1.6	x	x
- CC(C)CCNC(=O)CN(C(=O)CCC(=O)Nc1ccccn1)c1ccc2c(c1)OCCO2
 : -0.4	-2.6	6.4	-6.3	8.7
- O=C(CN(C(=O)CCC(=O)Nc1ccccn1)c1ccc2c(c1)OCCO2)NCCc1ccccc1
 : 3.0	x	1.2	-19.3	99.7*
- COc1ccc(NC(=O)N2C[C@@H]3N[C@H](C2)C3c2ccc(-c3cccc(F)c3)cc2)cc1 (stereo partly specified)
 : x	3.7	-16.8	x	x
- O=C(Nc1ccc(C(F)(F)F)cc1)N1C[C@@H]2N[C@H](C1)C2c1ccc(-c2cccc(F)c2)cc1 (stereo partly specified)
 : x	7.5	62.5*!	x	x
- COc1ccc(-c2ccc([C@@H]3[C@H](C#N)N(C(=O)C4CCCC4)[C@H]3CO)cc2)cc1
 : x	3.7	-24.7	17.0	-8.2
- Cc1ccc([N+](=O)[O-])cc1NC(=O)CN(C1CCCCC1)S(=O)(=O)c1ccc(Cl)cc1
 : -3.1	x	x	-12.2	13.5
- Cc1ccc([N+](=O)[O-])cc1NC(=O)CN(C(=O)c1ccccc1Cl)C1CCCCC1
 : -0.1	31.7*	-11.5	-11.2	-7.7
- Cc1ccc(CN2CC=CS2(=O)=O)cc1
 : x	1.5	x	x	x
- C/C(=N/NC(=O)c1ccc2c(c1)OCO2)c1cccc(NC(=O)C(C)(C)C)c1
 : -1.2	-5.7	18.1	-16.9	111.2*
- CCOc1cc(C)c(Cl)cc1S(=O)(=O)NCc1ccco1
 : 1.7	x	24.1	309.7*	-15.1
- CCOc1cc(C)c(Cl)cc1S(=O)(=O)N1CCCC1
 : 1.6	x	7.8	-15.4	80.8*
- COc1cc(C)c(Cl)cc1S(=O)(=O)N1CCCC1
 : 0.6	-3.8	-0.5	x	x
- COc1cc(C)c(Cl)cc1S(=O)(=O)NCc1ccco1
 : -2.8	x	-9.0	-12.6	5.9
- CCCOc1cc(C)c(Cl)cc1S(=O)(=O)N(CC)CC
 : -2.6	-30.9	-13.7	-13.6	108.5*

Whole records, quoted from the list. Order of values: iPSC survival up, FN deposit inh, PGC1a acetyl inh, Yeast UUG start, Statin myotox sup
O=C(/C=C/c1ccccc1)NC(=S)NNC(=O)Cc1cccs1 is listed with -0.1, 8.4, -16.7, -21.1, 104.1*
O=C(Nc1ccc(C(F)(F)F)cc1)N1C[C@@H]2N[C@H](C1)C2c1ccc(-c2cccc(F)c2)cc1 (stereo partly specified) is listed with x, 7.5, 62.5*!, x, x
COc1ccc(NC(=O)N2C[C@@H]3N[C@H](C2)C3c2ccc(-c3cccc(F)c3)cc2)cc1 (stereo partly specified) is listed with x, 3.7, -16.8, x, x
Cc1ccc([N+](=O)[O-])cc1NC(=O)CN(C1CCCCC1)S(=O)(=O)c1ccc(Cl)cc1 is listed with -3.1, x, x, -12.2, 13.5

More entries follow:
Short forms – A = iPSC survival up; B = FN deposit inh; C = PGC1a acetyl inh; D = Yeast UUG start; E = Statin myotox sup
CCOc1cc(C)c(Cl)cc1S(=O)(=O)N(C)C
  A: 2.4 | B: x | C: -2.3 | D: 4.7 | E: 14.7
CNC[C@H]1OCCCC[C@@H](C)Oc2ccc(N(C)C)cc2C(=O)N([C@H](C)CO)C[C@@H]1C
  A: x | B: x | C: 5.7 | D: -14.9 | E: 16.1
CCOc1ccc(S(=O)(=O)N(C)c2ccc(OCC(=O)N3c4ccc(C)cc4C4CN(C)CCC43)cc2)cc1 (stereo unspecified)
  A: 0.0 | B: 3.2 | C: 75.1* | D: 2.8 | E: x
C[C@H](CO)N1C[C@H](C)[C@H](CN(C)C(=O)Cc2ccncc2)Oc2ncc(C#CCN(C)C)cc2C1=O
  A: x | B: x | C: -3.6 | D: -6.7 | E: 58.2
Cc1nnc2n(C3CCCCC3)c(=O)c3c4c(sc3n12)COC(C)(C)C4
  A: 21.0* | B: x | C: -10.5 | D: -15.4 | E: -5.4
CCOC(=O)CSc1nnc2n(C3CCCCC3)c(=O)c3c4c(sc3n12)CCCC4
  A: 0.6 | B: x | C: 2.4 | D: -8.0 | E: -2.2
O=[N+]([O-])c1ccc(Oc2cccc(F)c2)c2ccncc12
  A: -1.1 | B: x | C: 70.6* | D: x | E: x
CN(C)c1nc(Oc2ccc(C(=O)OCC(=O)Nc3ccccc3)cc2)nc(N(C)C)n1
  A: -3.0 | B: x | C: 9.3 | D: -1.4 | E: 119.1*
CCOC(=O)c1ccc(Oc2nc(OC)nc(N(C)C)n2)cc1
  A: 6.4 | B: -0.8 | C: -2.9 | D: -3.7 | E: 6.1
O=C(O)CSc1nc(-c2ccccc2)nc2c1oc1ccccc12
  A: 1.1 | B: 3.5 | C: 5.1 | D: -17.3 | E: 120.3*
O=C(O)CSc1nc(-c2ccc(Cl)cc2)nc2c1oc1ccccc12
  A: 4.9 | B: -1.5 | C: x | D: -13.8 | E: x
